In ChEMBL document CHEMBL4020721 (Eur J Med Chem, 2017):

Assays:
[1] = Drug metabolism in monkey cytosol assessed as AO-mediated metabolite formation by measuring parent compound remaining at 100 uM after 30 mins in presence of 100 uM AO inhibitor menadione by LC-MS/MS analysis; assay type: ADME, Macaca mulatta; conditions: rhesus monkey, 0.5 h
[2] = Drug recovery in mouse liver microsomes at 1 uM measured after 30 mins by LC-MS/MS analysis
[3] = Drug recovery in rat liver microsomes at 1 uM measured after 30 mins by LC-MS/MS analysis; assay type: ADME, microsome; conditions: read-out: Drug recovery
Procedure, shortened: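 Liver microsomes (0.5 mg/ml) were incubated with 1 µM compound at 37°C in 100 mM phosphate buffer pH 7.4 without NADPH for 30 min. Reactions were quenched with acetonitrile/tinidazole internal standard and analysed by LC-MS/MS. Recovery (%) was taken from the compound/internal standard peak area ratio.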

[4] = Drug metabolism in monkey cytosol assessed as AO-mediated metabolite formation by measuring parent compound remaining at 100 uM after 30 mins in absence of AO inhibitor menadione by LC-MS/MS analysis; assay type: ADME, Macaca mulatta; conditions: rhesus monkey, 0.5 h
[5] = Intrinsic clearance in mouse liver microsomes assessed per mg protein at 1 uM preincubated for 5 mins followed by NADPH addition measured after 5 to 30 mins by LC-MS/MS analysis; conditions: read-out: CLH

Stability [1]: 99.6%
remaining at 0.5 h, 1 µM [2]: 107%
remaining at 0.5 h, 1 µM [3]: 101%
Stability [4]: 99.4%
microsomal CLint at 1 µM [5]: 50 µL/min/mg
Compound: CC(c1cc2cc(-c3cnn(C)c3)cnc2cc1F)n1nnc2ncc(-c3cnn(CCO)c3)nc21 (stereo in doubt; 14)
